Data: PubChem BioAssay AID463195 (Sanford-Burnham Center for Chemical Genomics, 2010)
The list shows a part of the results, in another mix than the full data. Calls of active or inactive are those of the source.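 Rule for the calls: active = inhibition of 40% or more at the single tested concentration; inactive = the rest.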

experiment: growth inhibitors of isogenic TIM10 control yeast, primary screen, counter-screen for tim10-1 yeast inhibitor project, luminescence, uHTS (AID 463195);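 note: wild-type TIM10 isogenic control strain grown at permissive 25 °C; 0% = DMSO yeast wells and 100% = minimal medium wells without yeast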; conditions: S. cerevisiae TIM10 strain growth, BacTiter-Glo luminescence, 24 h; at 10 µM; stronger effect = higher value

SMILES | inhibition
Cc1ccc(OCC(C)C)c(CN(CCCl)CCCl)c1 | inactive: 17.8%
CCOC(=O)N1CCC(Nc2cccc(C)c2)CC1 | inactive: -12%
CCOc1ccc(C)cc1CN(CCCl)CCCl | inactive: -6.37%
COc1ccc(NC2CCN(CCc3ccccc3)CC2)c(OC)c1 | inactive: -14.9%
CCOC(=O)N1CCC(Nc2ccc(F)cc2)CC1 | active: 65.1%
CCCCOc1ccc(C(=O)NCC2(N3CCOCC3)CCCCC2)cc1 | inactive: 13.3%
O=C(NCC1(N2CCCCC2)CCCCC1)c1ccc(F)cc1 | inactive: -12.9%
O=C(NCC1(N2CCOCC2)CCCCC1)c1cc2ccccc2o1 | inactive: 4.51%
Cc1cc(C)cc(N(C(=O)c2ccccc2)C2CCN(C(=O)OC(C)(C)C)CC2)c1 | inactive: -1.53%
O=C(NCC1(N2CCCCC2)CCCCC1)c1ccc(Cl)nc1 | inactive: 3.87%
CCOC(=O)N1CCC(Nc2ccc(OC)cc2)CC1 | inactive: -14.5%
COc1ccc(Cl)cc1C(=O)NCC1(N2CCOCC2)CCCCC1 | inactive: 9.14%
O=C(NCC1(N2CCCCC2)CCCCC1)c1ccc(Cl)s1 | inactive: 2.33%
N#CC1(Nc2ccccc2)CCN(Cc2ccccc2)CC1 | inactive: 5.47%
O=C(OC1CN2CCC1CC2)C1c2ccccc2Oc2ccccc21 (configuration not stated) | inactive: -22.9%
O=C(NCC1(N2CCCCC2)CCCCC1)c1cccs1 | inactive: 1.41%
O=C(NCC1(N2CCCCC2)CCCCC1)c1ccc(=O)[nH]c1 | inactive: 5.33%
CC(C)(C)OC(=O)N1CCC(N(C(=O)c2ccccc2)c2ccc(F)cc2)CC1 | inactive: 12.4%
COc1ccc(C(=O)NCC2(N3CCCCC3)CCCCC2)c(OC)c1OC | inactive: 16.4%
COc1ccc(C(=O)NCC2(N3CCCCC3)CCCCC2)cc1 | inactive: 6.65%
CSc1ccccc1C(=O)NCC1(N2CCCCC2)CCCCC1 | inactive: 5.34%
CN1CCC(Nc2cccc(F)c2)CC1 | inactive: 1.62%
O=C(NCC1(N2CCCCC2)CCCCC1)c1cncc(Br)c1 | inactive: 3.48%

SMILES | inhibition
CN(C)c1cccc(C(=O)NCC2(N3CCCCC3)CCCCC2)c1 | inactive: 3.7%
COc1ccc(CN(CCCl)CCCl)cc1Cl | inactive: 12.2%
CC(C)c1ccc(NC2CCN(C(=O)OC(C)(C)C)CC2)cc1 | inactive: 33.8%
O=C(NCC1(N2CCOCC2)CCCCC1)c1cc(F)c(F)cc1Cl | inactive: 1.26%
COc1cc(OC)c(C(=O)NCC2(N(C)C)CCCCC2)cc1OC | inactive: -14.2%
O=C(NCC1(N2CCCCC2)CCCCC1)c1cccc(C(F)(F)F)c1 | inactive: 4.87%
CN1CCN(CCOC(=O)C(O)(c2ccccc2)c2ccccc2)CC1 | inactive: 2.44%
CC(C)c1ccc(C(=O)NCC2(N3CCOCC3)CCCCC2)cc1 | inactive: 21%
COc1ccc(NC2CCN(C(=O)OC(C)(C)C)CC2)cc1 | inactive: 9.53%
COc1cc(C(=O)NCC2(N3CCCCC3)CCCCC2)ccc1OC(F)F | inactive: -0.026%
O=C(NCC1(N2CCOCC2)CCCCC1)c1cc(=O)[nH]c2ccccc12 | inactive: -13.2%
O=C(NCC1(N2CCCCC2)CCCCC1)c1ccc(OC(F)F)cc1 | inactive: -0.025%
O=C(NCC1(N2CCCCC2)CCCCC1)c1cccc([N+](=O)[O-])c1 | inactive: 2.01%
CSc1ccc(C(=O)NCC2(N3CCOCC3)CCCCC2)cc1 | inactive: 9.49%
N#CC1(Nc2ccccc2)CCN(CCc2ccccc2)CC1 | inactive: -6.04%
CCN1CCC(Nc2ccc(Cl)cc2)CC1 | inactive: -12.5%
CCCN1CCC(Nc2cc(OC)cc(OC)c2)CC1 | inactive: -1.77%
c1ccc(CN2CCC(Nc3ccccc3)CC2)cc1 | inactive: -0.835%
CN(C)C1(CNC(=O)c2cccc(C#N)c2)CCCCC1 | inactive: 1.51%
CC(C)(C)OC(=O)N1CCC(N(C(=O)c2ccccc2)c2ccc(Cl)cc2)CC1 | inactive: 22.3%
N#Cc1ccc(C(=O)NCC2(N3CCCCC3)CCCCC2)cc1 | inactive: 7.24%
N/C(=N\O)c1c(N)no[n+]1[O-] | inactive: 0.598%
CCOC(=O)N1CCC(Nc2ccc(C)cc2)CC1 | inactive: -5.14%

SMILES | inhibition
CCc1cc(C(=O)NCC2(N3CCCCC3)CCCCC2)sc1C | inactive: -8.15%
O=C(OC1CN2CCC1CC2)C1c2ccccc2C=Cc2ccccc21 (configuration not stated) | inactive: -3.78%
O=C(NCC1(N2CCOCC2)CCCCC1)c1cc(Br)ccc1Cl | inactive: 1.79%
COc1cc(C(=O)NCC2(N3CCOCC3)CCCCC2)cc(OC)c1C | inactive: 11%
COc1ccc(C(=O)NCC2(N3CCOCC3)CCCCC2)cc1OC | inactive: 6.45%
CCC(CO)(C(=O)OC1CN2CCC1CC2)c1ccccc1 (configuration not stated) | inactive: -2.62%
COc1cc(OC)cc(C(=O)NCC2(N3CCOCC3)CCCCC2)c1 | inactive: -6.28%
COc1cccc(C(=O)N(c2cc(C)cc(C)c2)C2CCN(C(=O)OC(C)(C)C)CC2)c1 | inactive: 1.03%
CCCOc1ccc(C)cc1CN(CCCl)CCCl | inactive: -5.76%
CN1CCC(Nc2ccc(Cl)cc2)CC1 | inactive: 3.9%
CN1CCC(Nc2ccc(F)c(Cl)c2)CC1 | inactive: -5.24%
CCOc1ncccc1C(=O)NCC1(N2CCOCC2)CCCCC1 | inactive: 22.2%
CCCOc1ccc(C(=O)NCC2(N(C)C)CCCCC2)cc1 | inactive: 0.71%
O=C(O)C1(Nc2ccccc2)CCN(Cc2ccccc2)CC1 | inactive: -27.6%
CC(C)(C)OC(=O)N1CCC(Nc2ccccc2)CC1 | inactive: 1.12%
CCN1CCC(Nc2cccc(F)c2)CC1 | inactive: 4.35%
CN(C)c1ccc(C(=O)NCC2(N3CCCCC3)CCCCC2)cc1 | inactive: -18%
O=C(NCC1(N2CCCCC2)CCCCC1)c1ccco1 | inactive: 7.62%
COc1cc(OC)cc(C(=O)NCC2(N3CCCCC3)CCCCC2)c1 | inactive: -6.57%
Fc1ccccc1NC1CCN(Cc2ccccc2)CC1 | inactive: -8.69%
Cc1ccc(C(=O)NCC2(N3CCCCC3)CCCCC2)o1 | inactive: 12.6%
